Experimental data taken from patent US9957247B2, “SecA inhibitors and methods of making and using thereof” (Georgia State University Research Foundation, Inc., priority 2012, dated 2018).

Sequences of proteins named here, by UniProt entry; tags and fusion partners are left off. A change or cut given only in a name is not applied to a line headed by its entry. Residues count along the entry.
UniProt Q9LCT3: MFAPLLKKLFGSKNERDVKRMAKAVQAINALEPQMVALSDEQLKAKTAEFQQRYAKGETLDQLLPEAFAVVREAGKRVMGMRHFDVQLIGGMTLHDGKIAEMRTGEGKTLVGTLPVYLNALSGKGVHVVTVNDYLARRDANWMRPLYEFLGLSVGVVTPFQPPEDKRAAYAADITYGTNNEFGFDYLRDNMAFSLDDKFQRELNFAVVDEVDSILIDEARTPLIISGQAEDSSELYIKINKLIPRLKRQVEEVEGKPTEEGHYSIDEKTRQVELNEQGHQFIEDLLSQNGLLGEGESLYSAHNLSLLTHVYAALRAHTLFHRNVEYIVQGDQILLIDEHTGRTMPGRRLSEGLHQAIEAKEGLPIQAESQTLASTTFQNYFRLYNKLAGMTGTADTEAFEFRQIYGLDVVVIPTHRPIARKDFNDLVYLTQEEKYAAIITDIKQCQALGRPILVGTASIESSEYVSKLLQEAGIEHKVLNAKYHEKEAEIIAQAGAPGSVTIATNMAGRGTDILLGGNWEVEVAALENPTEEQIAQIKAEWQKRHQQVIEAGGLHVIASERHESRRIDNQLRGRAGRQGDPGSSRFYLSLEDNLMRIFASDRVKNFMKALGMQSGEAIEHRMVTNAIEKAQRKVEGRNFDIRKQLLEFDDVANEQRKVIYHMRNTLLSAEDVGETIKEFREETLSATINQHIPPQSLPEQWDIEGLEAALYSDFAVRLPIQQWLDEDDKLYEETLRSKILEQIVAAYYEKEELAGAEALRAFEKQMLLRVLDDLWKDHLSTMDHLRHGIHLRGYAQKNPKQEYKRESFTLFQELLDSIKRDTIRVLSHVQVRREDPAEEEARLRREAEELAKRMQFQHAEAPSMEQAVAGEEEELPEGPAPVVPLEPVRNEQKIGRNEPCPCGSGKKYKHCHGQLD
UniProt P10408, 1-610: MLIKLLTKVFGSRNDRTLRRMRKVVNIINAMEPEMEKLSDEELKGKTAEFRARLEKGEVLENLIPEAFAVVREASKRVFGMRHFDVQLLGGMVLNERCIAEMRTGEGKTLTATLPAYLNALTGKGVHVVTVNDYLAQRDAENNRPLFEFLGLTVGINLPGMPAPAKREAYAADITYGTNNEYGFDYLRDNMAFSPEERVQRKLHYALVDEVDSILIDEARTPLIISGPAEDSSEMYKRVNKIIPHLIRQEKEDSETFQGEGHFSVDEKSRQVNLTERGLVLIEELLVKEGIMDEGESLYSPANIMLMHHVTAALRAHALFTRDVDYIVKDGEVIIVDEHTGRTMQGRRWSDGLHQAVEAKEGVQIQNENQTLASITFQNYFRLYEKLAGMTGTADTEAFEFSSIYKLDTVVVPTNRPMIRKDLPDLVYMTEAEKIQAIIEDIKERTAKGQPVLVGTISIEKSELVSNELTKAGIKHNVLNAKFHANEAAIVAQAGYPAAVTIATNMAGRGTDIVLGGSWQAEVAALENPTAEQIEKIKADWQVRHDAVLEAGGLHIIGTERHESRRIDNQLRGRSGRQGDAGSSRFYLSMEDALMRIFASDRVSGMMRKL

Tests used:
[1] = biological target: PaSecA (Pseudomonas aeruginosa, UniProt Q9LCT3); experiment: cell-based; settings: IC50, Ion Channel activity, Table 1
[2] = biological target: EcSecA N68 (Escherichia coli, UniProt P10408); assay type: biochemical, E. coli; settings: read-out: IC50, EcN68 SecA ATPase (unregulated ATPase)

Compound | IC50 [1] [µM] | IC50 [2] [µM]
CSc1nc(Sc2nnc(-c3cc(C(F)(F)F)cc(C(F)(F)F)c3)[nH]2)cc(Sc2nnc(-c3cc(C(F)(F)F)cc(C(F)(F)F)c3)[nH]2)n1 [SCA-21] | 1.5 | –
Dinitrofluorescein [DN, reference compound] | – | 50
